Experimental data taken from PMC2789237 (Analytical Biochemistry, 2010).

Test system: Nc1nc2c(c(=O)[nH]1)N=C(CNc1ccc(C(=O)N[C@@H](CCC(=O)O)C(=O)O)cc1)CN2
Test: purified protein
Conditions: NADPH

In the case of “dihydrofolate reductase–thymidylate synthase (TbDHFR-TS) (Trypanosoma brucei brucei)”, the Km is reported as 7.3 ± 1.5 µM.
